Target: T1, Lysosomal acid glucosylceramidase (Homo sapiens, UniProt P04062)
T1 sequence (P04062 whole entry): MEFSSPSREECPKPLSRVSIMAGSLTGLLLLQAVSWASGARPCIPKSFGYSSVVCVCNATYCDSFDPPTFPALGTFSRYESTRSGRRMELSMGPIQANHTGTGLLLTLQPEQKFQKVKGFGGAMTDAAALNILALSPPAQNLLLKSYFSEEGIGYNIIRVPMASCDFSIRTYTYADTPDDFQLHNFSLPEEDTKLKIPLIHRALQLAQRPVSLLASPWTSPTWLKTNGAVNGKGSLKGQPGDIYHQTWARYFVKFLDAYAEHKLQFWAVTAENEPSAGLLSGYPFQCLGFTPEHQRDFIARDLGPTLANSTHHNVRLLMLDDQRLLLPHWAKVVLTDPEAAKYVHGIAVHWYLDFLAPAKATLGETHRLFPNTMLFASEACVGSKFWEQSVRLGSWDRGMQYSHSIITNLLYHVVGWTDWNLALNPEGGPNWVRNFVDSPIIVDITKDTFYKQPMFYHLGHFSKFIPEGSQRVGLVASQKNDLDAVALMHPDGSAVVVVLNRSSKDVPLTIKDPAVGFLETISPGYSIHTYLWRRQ
Assay: Inhibition of glucocerebrosidase

IC50: 700 nM
SMILES: COc1ccc(Cl)cc1Nc1nc(NCCO)nc(N2CCCC2)n1

Reference: ChEMBL document CHEMBL1137486, “N4-phenyl modifications of N2-(2-hydroxyl)ethyl-6-(pyrrolidin-1-yl)-1,3,5-triazine-2,4-diamines enhance glucocerebrosidase inhibition by small molecules with potential as chemical chaperones for Gaucher disease” (Bioorg Med Chem Lett, 2007)
